Laboratory results taken from US10308660B2, “Compounds and compositions for inhibiting the activity of SHP2” (Novartis AG, priority 2015, dated 2019).

Protein sequences, listed by entry. Tags and fused reporters are not part of them.
UniProt Q06124, whole entry: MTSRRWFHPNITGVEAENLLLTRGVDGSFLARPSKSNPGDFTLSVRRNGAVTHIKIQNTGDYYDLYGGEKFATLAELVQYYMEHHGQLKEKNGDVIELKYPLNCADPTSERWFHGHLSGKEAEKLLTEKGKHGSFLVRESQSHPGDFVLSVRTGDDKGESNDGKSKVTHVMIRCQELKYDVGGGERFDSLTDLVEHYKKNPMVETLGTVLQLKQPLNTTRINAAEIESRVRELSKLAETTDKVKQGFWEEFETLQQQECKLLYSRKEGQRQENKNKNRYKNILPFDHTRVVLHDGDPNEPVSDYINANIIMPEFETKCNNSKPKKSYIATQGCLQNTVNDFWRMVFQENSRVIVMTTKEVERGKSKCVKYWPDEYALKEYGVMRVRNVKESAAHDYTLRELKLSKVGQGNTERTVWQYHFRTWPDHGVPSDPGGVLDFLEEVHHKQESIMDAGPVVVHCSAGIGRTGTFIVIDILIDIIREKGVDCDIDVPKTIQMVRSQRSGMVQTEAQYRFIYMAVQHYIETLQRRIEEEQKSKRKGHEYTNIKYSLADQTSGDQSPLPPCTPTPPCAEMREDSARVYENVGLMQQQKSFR

Molecular target: SHP2 (Homo sapiens (Human), UniProt Q06124)
Experiment: SHP2 allosteric inhibition assay (DiFMUP prompt fluorescence)
Assay type: biochemical
Settings: 0.5 nM SHP2 activated with 0.5 μM peptide IRS1_pY1172(dPEG8)pY1222; substrate DiFMUP; 25° C.

| SMILES | IC50 [nM] |
| --- | --- |
| COc1nccc(Sc2c(N)nc(N3CCC4(CC3)CO[C@@H](C)[C@H]4N)n(C)c2=O)c1C(F)(F)F | 17 |
| C[C@@H]1OCC2(CCN(c3nc(N)c(Sc4ccnc(NC5CC5)c4Cl)c(=O)n3C)CC2)[C@@H]1N | 32 |
